This experiment concerns PC3 cells. Kind of experiment: NT-induced proliferation of PC3 cells (^3H-thymidine). Format: cell-based. The conditions noted are these: read-out: IC50 for inhibition of NT-induced proliferation; 24 hours, 10 nM NT.

Structures are written as SMILES.

`CCN1C(C)=C(C(C)=O)C(c2ccccc2)C(C(C)=O)=C1C`: the IC50 was greater than 10 µM.

These data come from patent US7507547B2, “Screening assays for antioxidants and antiproliferative compounds” (University of Massachusetts, priority 2004, dated 2009).
